Reference: patent US20260184707A1, “PHARMACEUTICAL COMPOUNDS FOR THE TREATMENT OF COMPLEMENT MEDIATED DISORDERS” (ALEXION PHARMACEUTICALS, INC., priority 2022, published 2026)

The chains behind the UniProt entries cited, without tags or fusion partners. Residues count along the entry.
UniProt P09871, 438-688 limits assumed: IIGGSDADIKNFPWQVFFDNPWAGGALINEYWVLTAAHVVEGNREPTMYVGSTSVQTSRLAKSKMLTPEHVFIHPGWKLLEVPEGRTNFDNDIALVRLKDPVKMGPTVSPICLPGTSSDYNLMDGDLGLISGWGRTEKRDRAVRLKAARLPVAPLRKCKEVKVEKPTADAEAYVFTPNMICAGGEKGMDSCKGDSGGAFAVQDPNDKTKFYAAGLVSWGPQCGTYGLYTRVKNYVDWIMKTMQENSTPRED
UniProt P09871, 16-437 partner limits assumed: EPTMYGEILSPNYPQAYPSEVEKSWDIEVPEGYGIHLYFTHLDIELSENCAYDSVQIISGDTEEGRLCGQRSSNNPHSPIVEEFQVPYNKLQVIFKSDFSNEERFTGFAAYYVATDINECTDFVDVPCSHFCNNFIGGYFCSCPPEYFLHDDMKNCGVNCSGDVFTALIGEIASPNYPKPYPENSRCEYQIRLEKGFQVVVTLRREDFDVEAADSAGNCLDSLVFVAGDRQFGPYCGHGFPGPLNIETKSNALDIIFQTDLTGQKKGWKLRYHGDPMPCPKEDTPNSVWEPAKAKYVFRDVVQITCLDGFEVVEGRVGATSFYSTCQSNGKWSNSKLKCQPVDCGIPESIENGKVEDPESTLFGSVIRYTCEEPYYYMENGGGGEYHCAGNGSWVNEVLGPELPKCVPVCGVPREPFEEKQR

Each compound was assayed against Human complement C1s enzyme (Homo sapiens, UniProt P09871) (assay: Human C1s enzyme assay). Conditions: read-out: IC50 (Stars); human complement C1s enzyme 1.16 nM, substrate Z-L-Lys-SBzl, A405.
Type: biochemical
Experimental: The […] values of the compounds of Table 1 were determined with the human C1s enzyme assay described below. Other standard complement assays are also available.
Human complement C1s enzyme (purified from human serum, Complement Technology, Inc.) at 1.16 nM final concentration was incubated with test compound at various concentrations for 5 min at room temperature in 50 mM Tris, 1 M NaCl, pH 7.5. A synthetic substrate Z-L-Lys-SBzl and DTNB (Ellman's reagent) were added to final concentrations of 100 μM each. Absorbance at 405 nm (A405) was recorded at 30 second intervals for […] using a microplate spectrophotometer. IC values were calculated by nonlinear regression of complement C1s reaction rates as a function of test compound concentration.
[…]; ND indicates a compound for which the IC50 value is not determined.

Row | IC50 | Compound
1 | < 100 nM | C[C@@H](Nc1cnc(-c2ccccc2F)n(CC(=O)NCc2cc3cnccc3[nH]2)c1=O)c1ccc2oc3ccc(F)cc3c2c1
2 | < 100 nM | C[C@@H](Nc1cnc(-c2ccccc2F)n(CC(=O)NCc2cc3cnccc3[nH]2)c1=O)c1ccc2oc3cccc(F)c3c2c1

Row | Compound | IC50
3 | O=C(Cn1c(-c2ccccc2)ncc(NCCCc2ccc(OCF)cc2)c1=O)NCc1cc2cnccc2[nH]1 | < 100 nM
